Source: ChEMBL document CHEMBL1137888, “1,3-Dihydro-2,1,3-benzothiadiazol-2,2-diones and 3,4-dihydro-1H-2,1,3-benzothidiazin-2,2-diones as ligands for the NOP receptor” (2004)

Sequences of proteins named here, by UniProt entry; tags and fusion partners are left off. A change or cut given only in a name is not applied to a line headed by its entry.
UniProt P41146: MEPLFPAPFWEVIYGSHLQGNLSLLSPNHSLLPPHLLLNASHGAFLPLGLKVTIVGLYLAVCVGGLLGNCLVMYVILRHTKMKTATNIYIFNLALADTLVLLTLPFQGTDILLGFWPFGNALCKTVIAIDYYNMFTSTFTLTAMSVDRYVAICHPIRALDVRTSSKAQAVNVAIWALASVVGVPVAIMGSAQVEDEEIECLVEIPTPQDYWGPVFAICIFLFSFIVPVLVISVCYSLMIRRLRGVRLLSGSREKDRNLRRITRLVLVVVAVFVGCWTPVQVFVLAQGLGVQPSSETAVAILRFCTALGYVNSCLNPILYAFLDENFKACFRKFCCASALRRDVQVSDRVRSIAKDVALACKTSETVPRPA

Target: Nociceptin receptor (Homo sapiens) (UniProt P41146)
Assay: Agonist activity as maximal effect in [35S]-GTP-gamma binding assay compared to 60 nM N/OFQ

First: O=S1(=O)NCc2ccccc2N1C1CCN(C2CCCCCCC2)CC1
Second: O=S1(=O)NCc2ccccc2N1C1CCN(C2CCC3CCCCC3C2)CC1 (stereo not drawn)
The Emax of the first is lower: 79% for the first, 94% for the second.

`CC(C)C1CCC(N2CCC(N3c4ccccc4CN(CCNS(C)(=O)=O)S3(=O)=O)CC2)CC1` (stereo not drawn) and `CC(C)C1CCC(N2CCC(N3c4ccccc4CN(CC#N)S3(=O)=O)CC2)CC1` (stereo not drawn) are the same in Emax: 98% for the first, 98% for the second.

Compared with `CC(C)C1CCC(N2CCC(N3c4ccccc4CN(CC(N)=O)S3(=O)=O)CC2)CC1` (stereo not drawn), `COC(=O)CN1Cc2ccccc2N(C2CCN(C3CCC(C(C)C)CC3)CC2)S1(=O)=O` (stereo not drawn) is lower in Emax: 97% for the first, 92% for the second.

Compared with `CC(C)C1CCC(N2CCC(N3c4ccccc4NS3(=O)=O)CC2)CC1` (stereo not drawn), `O=S1(=O)Nc2ccccc2N1C1CCN(C2CCC3CCCCC3C2)CC1` (stereo not drawn) is lower in Emax: 78% for the first, 66% for the second.

First: O=S1(=O)NCc2ccccc2N1C1CCN(Cc2ccc3ccccc3c2)CC1
Second: O=S1(=O)NCc2ccccc2N1C1CCN(CCC(c2ccccc2)c2ccccc2)CC1
The Emax of the first is lower: 83% for the first, 99% for the second.

Going from `CC(C)C1CCC(N2CCC(N3c4ccccc4CN(CC(=O)OC(C)(C)C)S3(=O)=O)CC2)CC1` (stereo not drawn) to `CCCC1CCC(N2CCC(N3c4ccccc4CNS3(=O)=O)CC2)CC1` (stereo not drawn), the Emax rises from 61% to 96%.

In the case of `O=S1(=O)NCc2ccccc2N1C1CCN(C2Cc3ccccc3C2)CC1`, the Emax is reported as 98%.
